Results reported in ChEMBL document CHEMBL5046286, “Discovery of MAP855, an Efficacious and Selective MEK1/2 Inhibitor with an ATP-Competitive Mode of Action” (J Med Chem, 2022).

Chains of the proteins cited; added tags and fusions are not shown.
UniProt Q02750, whole entry: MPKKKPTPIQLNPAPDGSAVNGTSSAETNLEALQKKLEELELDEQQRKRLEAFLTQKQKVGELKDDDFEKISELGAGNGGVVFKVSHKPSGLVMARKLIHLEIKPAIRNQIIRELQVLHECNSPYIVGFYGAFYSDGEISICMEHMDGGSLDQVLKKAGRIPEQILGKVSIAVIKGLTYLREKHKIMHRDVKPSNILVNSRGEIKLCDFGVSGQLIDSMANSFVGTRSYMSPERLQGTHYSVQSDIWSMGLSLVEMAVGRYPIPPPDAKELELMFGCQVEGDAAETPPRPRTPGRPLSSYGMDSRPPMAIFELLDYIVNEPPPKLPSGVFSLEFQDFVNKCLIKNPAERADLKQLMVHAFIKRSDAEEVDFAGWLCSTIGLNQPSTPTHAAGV

Biological target: Dual specificity mitogen-activated protein kinase kinase 1 (Homo sapiens, UniProt Q02750)
Assay: Inhibition of full-length human MEK1 by TR-FRET assay

- IC50: 100 nM
SMILES: N#CCc1ccc(-n2cnc3cnc4cc(F)c(-c5ccc(Oc6ccccn6)cc5Cl)cc4c32)cc1
